Assay results published in patent publication US20250057925A1.

Legend:
[1] = biological target: cation-independent mannose-6-phosphate receptor (CIMPR); test: CIMPR affinity column, flow through against M6P-eluted fraction by GAA activity
[2] = biological target: cation-independent mannose-6-phosphate receptor (CIMPR); test: CIMPR affinity chromatography, different production batches (FIG. 5)
[3] = biological target: cation-independent mannose-6-phosphate receptor (CIMPR); test: CIMPR affinity column, same condition as for Myozyme and Lumizyme (FIG. 5)
[4] = biological target: cation-independent mannose-6-phosphate receptor (CIMPR); test: M6P receptor (CIMPR) plate binding assay
[5] = biological target: cellular receptors of normal and Pompe fibroblast cell lines; test: cell-based or functional assay

percent of rhGAA bound to CIMPR (M6P-bearing fraction) [1] [%]	percent of rhGAA not bound to CIMPR [1] [%]	percent of rhGAA bound to CIMPR [2] [%]	percent of rhGAA bound to CIMPR [3] [%]	Kd [4] [nM]	concentration that saturates cellular receptors (fibroblast uptake) [5] [nM]	uptake efficiency constant (Kuptake), internalised GAA activity in fibroblasts after 16 h [5] [nM]	Substance
27	73						Myozyme® (alglucosidase alfa), conventional rhGAA product (from UniProt P10253 57-952) (enzyme)
		> 70	> 70	2 to 4	20		ATB200 recombinant human acid α-glucosidase (rhGAA) produced from CHO cell line GA-ATB200 (from UniProt P10253 57-952) (enzyme)
22	78				250	56	Lumizyme® (alglucosidase alfa), conventional rhGAA product (from UniProt P10253 57-952) (enzyme)
